Reference: patent US9856499B2, “Long chain organic acid bioproduction” (dated 2018)

Legend:
[1] = cited from earlier work
[2] = system: Clostridium acetobutylicum; experiment: Effect of electron carrier dyes on the pattern of metabolites

Molecule	redox potential ([1]; midpoint potential from the standard hydrogen electrode at pH 7) [V]	redox potential ([1]; no unit)	ratio of butyrate to acetate ([2]; 50 uM, CGM medium, 50 hours)	effect on butyrate versus acetate production / metabolite profile [2]
O=C(O)c1cccc2nc3ccccc3nc12	−0.116	−0.113	much higher ratio of butyrate to acetate	
CN(C)c1ccc2nc3ccc(=[N+](C)C)cc-3sc2c1				do not show the same effect
methyl viologen				do not show the same effect

Read-outs that look alike come from different tables or passages of the source.
